Experimental findings from PubChem BioAssay AID588342 (National Center for Advancing Translational Sciences (NCATS), 2011) are described below.

The chains behind the UniProt entries cited, without tags or fusion partners.
UniProt P08659, whole entry: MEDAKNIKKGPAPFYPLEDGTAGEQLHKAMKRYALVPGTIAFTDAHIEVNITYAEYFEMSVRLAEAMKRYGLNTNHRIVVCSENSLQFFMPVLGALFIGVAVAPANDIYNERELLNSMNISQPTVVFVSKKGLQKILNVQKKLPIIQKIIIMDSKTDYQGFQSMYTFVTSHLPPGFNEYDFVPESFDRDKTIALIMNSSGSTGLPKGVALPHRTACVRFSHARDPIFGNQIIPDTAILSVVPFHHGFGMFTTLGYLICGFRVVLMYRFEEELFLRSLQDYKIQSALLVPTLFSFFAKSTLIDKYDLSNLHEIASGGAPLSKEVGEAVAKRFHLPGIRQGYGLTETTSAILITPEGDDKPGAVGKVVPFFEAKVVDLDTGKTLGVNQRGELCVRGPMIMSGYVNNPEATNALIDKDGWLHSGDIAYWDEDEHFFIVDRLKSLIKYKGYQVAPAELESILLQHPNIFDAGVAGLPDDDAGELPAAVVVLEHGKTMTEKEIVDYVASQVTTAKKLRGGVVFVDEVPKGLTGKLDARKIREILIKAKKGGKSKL

Only a part is listed here, and it is no random draw. Results filed as inconclusive are left out. Active and inactive are the calls of the source. Calls come from the whole dose curve; as a rule, active = well fitted inhibition curve with a large enough effect; inconclusive = small, poorly fitted or top-dose-only effect; inactive = flat fitted curve, though single readings scatter.

The target in the experiment is Luciferin 4-monooxygenase (Photinus pyralis) (UniProt P08659). The experiment in a line: qHTS profiling assay for firefly luciferase inhibitor/activator using purifed enzyme and Km concentrations of substrates (counterscreen for miR-21 project).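 Note: plate controls were vehicle for no effect and reference inhibitor for full effect; nearly all actives have a fitted effect of over 55% in size.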 The settings on record: purified FLuc, luminescence inhibition; at 57.5 µM (top of the series).
With `O=C(NCC1(N2CCCCC2)CCCCC1)c1ccc(Cl)nc1`, the activity change, negative = inhibition is inactive: 1.46%.

For the compound `O=C(NCC1(N2CCOCC2)CCCCC1)c1cc2ccccc2o1`, the activity change, negative = inhibition is inactive: 2.18%.

On to `COc1ccc(Cl)cc1C(=O)NCC1(N2CCOCC2)CCCCC1`, for which the activity change, negative = inhibition is inactive: -0.86%.

As for `N#CC1(Nc2ccccc2)CCN(Cc2ccccc2)CC1`, the activity change, negative = inhibition is inactive: -0.594%.

`O=C(NCC1(N2CCCCC2)CCCCC1)c1ccc(Cl)s1`: the activity change, negative = inhibition was inactive: 2.6%.

For `O=C(OC1CN2CCC1CC2)C1c2ccccc2Oc2ccccc21` (stereo not drawn), the activity change, negative = inhibition was inactive: 4.47%.

Regarding `CCOC(=O)N1CCC(Nc2ccc(OC)cc2)CC1`, the activity change, negative = inhibition is inactive: 3.31%.

For the compound `CC(C)(C)OC(=O)N1CCC(N(C(=O)c2ccccc2)c2ccc(F)cc2)CC1`, the activity change, negative = inhibition is inactive: -0.617%.

As for `COc1ccc(C(=O)NCC2(N3CCCCC3)CCCCC2)c(OC)c1OC`, the activity change, negative = inhibition is inactive: -0.454%.

`COc1ccc(C(=O)NCC2(N3CCCCC3)CCCCC2)cc1`: the activity change, negative = inhibition was inactive: -0.142%.

As to `O=C(NCC1(N2CCCCC2)CCCCC1)c1cccs1`, the activity change, negative = inhibition is inactive: -1.76%.

For `O=C(NCC1(N2CCCCC2)CCCCC1)c1ccc(=O)[nH]c1`, the activity change, negative = inhibition was inactive: 0.361%.

Regarding `CSc1ccccc1C(=O)NCC1(N2CCCCC2)CCCCC1`, the activity change, negative = inhibition is inactive: 2.24%.

For the compound `Cc1ccc(OCC(C)C)c(CN(CCCl)CCCl)c1`, the activity change, negative = inhibition was inactive: -2.86%.

Take `CCOC(=O)N1CCC(Nc2cccc(C)c2)CC1`: the activity change, negative = inhibition is inactive: -1.04%.

Take `COc1cc(C(=O)NCC2(N(C)C)CCCCC2)ccc1OC(F)F`: the activity change, negative = inhibition was inactive: -1.85%.

In the case of `O=C(NCC1(N2CCOCC2)CCCCC1)c1ccc(Cl)cc1`, the activity change, negative = inhibition was inactive: -8.58%.

`CCOc1ccc(C)cc1CN(CCCl)CCCl`: the activity change, negative = inhibition is inactive: -1.73%.

For the compound `COc1ccccc1C(=O)NCC1(N2CCOCC2)CCCCC1`, the activity change, negative = inhibition is inactive: 6.26%.

Consider `COc1ccc(NC2CCN(CCc3ccccc3)CC2)c(OC)c1`, for which the activity change, negative = inhibition is inactive: -0.498%.

Consider `CCOC(=O)N1CCC(Nc2ccc(F)cc2)CC1`, for which the activity change, negative = inhibition was inactive: -1.29%.

Turning to `CCCCOc1ccc(C(=O)NCC2(N3CCOCC3)CCCCC2)cc1`, the activity change, negative = inhibition is inactive: -4.52%.

In the case of `O=C(NCC1(N2CCCCC2)CCCCC1)c1ccc(F)cc1`, the activity change, negative = inhibition was inactive: 3.67%.
